Assay results published in US7732437B2, “Use of anti-histaminics for acute reduction of elevated intracranial pressure” (Janssen Pharmaceutica, NV., priority 2001, dated 2010).

Chains of the proteins cited; added tags and fusions are not shown.
UniProt P35367, whole entry: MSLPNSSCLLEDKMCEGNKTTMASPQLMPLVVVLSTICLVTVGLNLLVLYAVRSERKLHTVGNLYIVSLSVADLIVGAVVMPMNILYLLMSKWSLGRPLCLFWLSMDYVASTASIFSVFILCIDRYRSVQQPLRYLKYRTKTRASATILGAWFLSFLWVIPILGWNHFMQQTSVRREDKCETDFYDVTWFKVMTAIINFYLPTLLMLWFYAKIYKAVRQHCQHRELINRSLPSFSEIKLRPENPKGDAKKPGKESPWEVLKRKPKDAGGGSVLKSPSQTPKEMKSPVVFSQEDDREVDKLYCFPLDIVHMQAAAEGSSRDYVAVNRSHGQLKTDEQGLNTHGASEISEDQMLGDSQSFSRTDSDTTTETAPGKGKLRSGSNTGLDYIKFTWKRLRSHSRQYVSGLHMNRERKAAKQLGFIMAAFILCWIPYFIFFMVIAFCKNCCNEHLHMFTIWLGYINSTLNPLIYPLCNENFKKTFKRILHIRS

Experiments:
[1] = molecular target: human histamine H1-receptor (Homo sapiens, UniProt P35367); assay: Radioligand binding, histamine H1-receptor, competitive inhibition of [3H]Pyrilamine; details: CHO-cells transfected with the human histamine H1-receptor
[2] = tested on: Sprague-Dawley rats with closed head injury; assay: Closed Head Injury (CHI) model, severe head injury; format: in vivo, rat; details: bolus of 1 mg/kg in 1 min, then infusion of 0.5 mg/kg/min for 44 min

SMILES | H1-antagonist activity (pIC50) ([1]; tested form: hydrate (1:1)) | Decision (sequential statistical evaluation) [2] | Delta %: average change of the relative ICP from baseline over the treatment period [2] | H1-antagonist activity (pIC50) [1]
Cc1nc2ccccn2c(=O)c1CCN1CCC(C2(C)c3ccccc3CCn3c2nc2ccccc23)CC1 (stereo not drawn) | 6.7 | – | – | –
Cc1nc2n(C)c3ccccc3n2c(=O)c1CCN1CCC(C2c3ccccc3CCn3c2nc2ccccc23)CC1Cc1ccccc1 (single isomer, unassigned) [Compound 9] | – | active | −12.4% | –
Cc1nc2n(C)c3ccccc3n2c(=O)c1CCN1CCC(C2c3ccccc3CCn3c2nc2ccccc23)CC1Cc1ccccc1 (single isomer, unassigned) [Compound 45] | – | active | −13.1% | 6.5
